Km data for 1 protein are collected here from ChEMBL document CHEMBL5579878, “Allosteric Activation of Protein Phosphatase 5 with Small Molecules” (J Med Chem, 2024).

Substrate in this data set: N=c1oc2cc(F)cc(F)c2cc1C(N)=S
The following applies: Homo sapiens; filed as activator; dose 60.0 µM, time 40.0 min.

B1: Serine/threonine-protein phosphatase 5 (Homo sapiens), P53041 (protein)
chain: MAMAEGERTECAEPPRDEPPADGALKRAEELKTQANDYFKAKDYENAIKFYSQAIELNPSNAIYYGNRSLAYLRTECYGYALGDATRAIELDKKYIKGYYRRAASNMALGKFRAALRDYETVVKVKPHDKDAKMKYQECNKIVKQKAFERAIAGDEHKRSVVDSLDIESMTIEDEYSGPKLEDGKVTISFMKELMQWYKDQKKLHRKCAYQILVQVKEVLSKLSTLVETTLKETEKITVCGDTHGQFYDLLNIFELNGLPSETNPYIFNGDFVDRGSFSVEVILTLFGFKLLYPDHFHLLRGNHETDNMNQIYGFEGEVKAKYTAQMYELFSEVFEWLPLAQCINGKVLIMHGGLFSEDGVTLDDIRKIERNRQPPDSGPMCDLLWSDPQPQNGRSISKRGVSCQFGPDVTKAFLEENNLDYIIRSHEVKAEGYEVAHGGRCVTVFSAPNYCDQMGNKASYIHLQGSDLRPQFHQFTAVPHPNVKPMAYANTLLQLGMM
As usually defined, the Km is the substrate concentration at which the rate is half of its maximum. Turning to B1, the Michaelis-Menten constant (Km) turned out to be 20.1 mM.
